{"source": "patent US20120039957A1", "about": "“OPTIMIZED NIACIN COMPOSITIONS IN PHARMACEUTICAL PRODUCTS” (ACURA PHARMACEUTICALS, INC., priority 2010, published 2012)"}
{"smiles": "O=C(O)c1cccnc1", "note": "[micronized niacin, niacin]", "values": [{"measurement": "increase of kinetic solubility relative to reference after 24 hours", "result": 50, "unit": "%"}]}
